The record followed here is PubChem BioAssay AID1216 (Sanford-Burnham Center for Chemical Genomics, 2008).

Protein sequences, listed by entry. Tags and fused reporters are not part of them. Lines headed by an entry give the natural chain unless they say otherwise; changes in a name come on top.
UniProt P34949: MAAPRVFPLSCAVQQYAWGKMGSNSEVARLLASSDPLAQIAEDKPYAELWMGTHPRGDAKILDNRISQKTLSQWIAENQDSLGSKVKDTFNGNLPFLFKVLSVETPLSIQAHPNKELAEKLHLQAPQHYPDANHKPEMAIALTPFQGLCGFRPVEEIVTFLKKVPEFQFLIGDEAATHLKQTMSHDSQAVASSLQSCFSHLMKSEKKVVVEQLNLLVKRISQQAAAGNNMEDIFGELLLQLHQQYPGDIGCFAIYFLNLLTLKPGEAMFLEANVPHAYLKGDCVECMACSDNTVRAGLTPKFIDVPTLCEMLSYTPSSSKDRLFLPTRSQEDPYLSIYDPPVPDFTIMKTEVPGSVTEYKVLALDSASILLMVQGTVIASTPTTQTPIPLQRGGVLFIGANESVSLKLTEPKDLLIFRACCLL

Only a part is listed here, and it is no random draw. Active and inactive are the calls of the source.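 Rule for the calls: active = activation factor of 2 or more at 20 µM; inactive = the rest.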

For this experiment, the target named is Mannose-6-phosphate isomerase (Homo sapiens) (UniProt P34949). The experiment is described as follows: human PMI activators, high substrate, primary screen, biochemical, fluorescence intensity, near-saturating mannose 6-phosphate (AID 1216). Particulars: coupled PMI enzyme assay, resazurin fluorescence, 20 min; at 20 µM; active compounds read high; 1 = untreated enzyme, 0 = substrate-free blank. The essentials:
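Technique: Diaphorase-driven resazurin-to-resorufin fluorescence, excitation 544, emission 590 nm | Assay system: Human PMI in coupled enzyme assay | Times: Enzyme reaction with compound 20 min at room temperature | Medium: HEPES-buffered pH 7.4 with magnesium and detergent | Reagent: Mannose-6-phosphate 1.0 mM (near-saturating) plus 0.22 mM NADP+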
As for `COc1ccc(C2=NCC(CBr)S2)cc1` (stereo not drawn), the activation factor is inactive: 1.1. Turning to `O=[N+]([O-])c1cccc2n[nH]nc12`, the activation factor was inactive: 1.1. To `Cc1ccc(NP(=O)(Oc2ccccc2)Oc2ccccc2)nc1` belongs inactive: 0.9; to `O=[N+]([O-])c1cc([N+](=O)[O-])c(CCNc2ccccc2)c([N+](=O)[O-])c1`, inactive: 0.9; to `CCc1nc2c(n1)c1c(non1O)c1c2no[n+]1[O-]`, inactive: 0.4. The same measure for `CC(C)=N/N=C(\N)N[N+](=O)[O-]`: inactive: 1.1. Consider `CN(C)C(=O)OCCc1n(C)cc[n+]1C`, for which the activation factor was inactive: 1.1. On to `O=[N+]([O-])c1ncn(CCn2ncnc2[N+](=O)[O-])n1`, for which the activation factor was inactive: 0.8. The same measure for `Cc1cc(SC(NC(=O)c2ccc(F)cc2)C(Cl)(Cl)Cl)ncn1` (stereo not drawn): inactive: 1.4; for `CCN(N=Nc1nonc1N)c1nonc1N`: inactive: 0.9; for `Clc1ccc(Cl)c(NC2=NCC(CBr)S2)c1` (stereo not drawn): inactive: 1.1.

As for `CN1CCCC(OC(=O)C(c2ccccc2)c2ccccc2)C1` (stereo not drawn), the activation factor is inactive: 1.1. Consider `Cc1c2non([O-])c-2c(C)[n+](=O)[n+]1[O-]`, for which the activation factor was inactive: 0.6.

Turning to `O=C(NC(Sc1ccncn1)C(Cl)(Cl)Cl)c1ccccc1` (stereo not drawn), the activation factor was inactive: 1.7.

For `O=P1(Nc2nc3ccc(Cl)cc3s2)COc2ccccc2O1` (stereo not drawn), the activation factor is inactive: 0.9. Consider `O=C(NC1CCS(=O)(=O)C1)NP(=S)(Oc1ccccc1)Oc1ccccc1` (stereo not drawn), for which the activation factor is inactive: 0.8. Turning to `CCNC(=S)/N=C(\N)N[N+](=O)[O-]`, the activation factor was inactive: 1.1.

With `c1ccc(-c2nn[nH]n2)c(-c2nn[nH]n2)c1`, the activation factor is inactive: 1.2. To `CC(=O)NC(SC(=S)N(CC(C)C)CC(C)C)C(Cl)(Cl)Cl` (stereo not drawn) belongs inactive: 1.1; to `Cc1ccc(OP(=O)(Nc2ccccn2)Oc2ccc(C)cc2)cc1`, inactive: 0.9; to `O=c1c2cc([N+](=O)[O-])ccc2[nH]c2c([N+](=O)[O-])cc([N+](=O)[O-])cc12`, inactive: 0.7. Consider `C(Cc1nn[nH]n1)Cc1nn[nH]n1`, for which the activation factor is inactive: 1.2. To `O=C(OC1CN2CCC1CC2)c1cccc(Cl)c1` (stereo not drawn) belongs inactive: 0.9. To `O=P(Nc1nccs1)(c1ccccc1)c1ccccc1` belongs inactive: 1.1; to `CC(C)/C=N\N=C(\N)N[N+](=O)[O-]`, inactive: 1.1; to `Cc1nn(-c2ccccc2)c2c1P(=O)(N1CCOCC1)N(C)C(c1ccccc1)=N2` (stereo not drawn), inactive: 0.9. To `CN(C)C1(CNC(=O)c2ccc(S(C)(=O)=O)cc2)CCCCC1` belongs inactive: 0.9. For the compound `O=P1(Nc2ncccn2)COc2ccccc2OC1`, the activation factor was inactive: 1.2.

Consider `O=P1(Nc2ccc(Br)cn2)COc2ccccc2OC1`, for which the activation factor was inactive: 1.1. To `Cc1ccc(OCC(=O)OC2CN3CCC2CC3)cc1` (stereo not drawn) belongs inactive: 0.9; to `O=P(Nc1nccs1)(c1ccccc1)c1nc2ccccc2s1` (stereo not drawn), inactive: 0. The same measure for `O=[N+]([O-])c1ccc2c(c1)nnn2O`: inactive: 1.1; for `COc1cc(C(=O)NCC2(N3CCOCC3)CCCCC2)cc(Cl)c1OC(C)C`: inactive: 1.1; for `Cc1ccc(NCCc2c([N+](=O)[O-])cc([N+](=O)[O-])cc2[N+](=O)[O-])cc1`: inactive: 0.7. In the case of `O=C(OC1CN2CCC1CC2)C12CC3CC(CC(C3)C1)C2` (stereo not drawn), the activation factor is inactive: 1.1. With `ClCCSc1nnc(-c2cccnc2)o1`, the activation factor is inactive: 0.9.

On to `CC(C)NC(=O)NP(=O)(Oc1ccccc1)Oc1ccccc1`, for which the activation factor was inactive: 0.9. The same measure for `O=[N+]([O-])c1cc([N+](=O)[O-])c(-c2ccn[nH]2)s1`: inactive: 0.8; for `Cc1cc(SC(NC(=O)c2ccccc2)C(Cl)(Cl)Cl)nc(C(C)C)n1` (stereo not drawn): inactive: 1.2; for `Cc1cc(SC(NC=O)C(Cl)(Cl)Cl)ncn1` (stereo not drawn): inactive: 1.8.

Turning to `O=P(Nc1ccccn1)(c1cccc2ccccc12)c1cccc2ccccc12`, the activation factor was inactive: 0.9.

On to `COP1(=S)c2c(C)nn(CCC#N)c2N=C(c2ccc(F)cc2)N1C` (stereo not drawn), for which the activation factor was inactive: 1.1. To `CCC(C)N(CC(C)C)C(=S)SC(NC(C)=O)C(Cl)(Cl)Cl` (stereo not drawn) belongs inactive: 1.1.
